# Cyclic peptide permeability, from CycPeptMPDB

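The data file gives no further conditions (lipid, pH, time, direction or concentration), and values from different papers need not be comparable. Other peptides of the study may be missing here. Peptides that the database sets to -10, its floor, are left out.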

PAMPA is the parallel artificial membrane permeability assay, which has no cells and reads passive diffusion. Permeability is in 10^-6 cm/s, converted from the database's log10 values; higher is more permeable.

| structure (SMILES) | PAMPA (10^-6 cm/s) |
|---|---|
| CCCN1CC(=O)N(C)[C@@H](CC(C)C)C(=O)N[C@@H](CC(C)C)C(=O)N2CCC[C@@H]2C(=O)N(C)[C@@H](CC(C)C)C(=O)N[C@@H](Cc2ccccc2)C(=O)N2CCC[C@@H]2C1=O | 12 |
| CC(C)C[C@@H]1NC(=O)[C@@H](C)N(C)C(=O)[C@@H]2CCCN2C(=O)[C@H](Cc2ccccc2)NC(=O)[C@@H](CC(C)C)N(C)C(=O)[C@@H]2CCCN2C(=O)[C@H](CC(C)C)N(C)C1=O | 0.95 |
| CC(C)C[C@@H]1NC(=O)[C@@H](C)N(C)C(=O)[C@@H]2CCCN2C(=O)[C@H](Cc2ccccc2)NC(=O)[C@H](CC(C)C)N(C)C(=O)[C@@H]2CCCN2C(=O)CN(Cc2ccccc2)C1=O | 1.7 |
| CC(C)C[C@@H]1NC(=O)[C@@H](C)NC(=O)[C@H]2CCCN2C(=O)[C@H](Cc2ccccc2)NC(=O)[C@H](CC(C)C)N(C)C(=O)[C@H]2CCCN2C(=O)[C@@H](CC(C)C)N(C)C1=O | 1.7 |
| CC(C)C[C@@H]1C(=O)N[C@H](CC(C)C)C(=O)N2CCC[C@@H]2C(=O)N(C)[C@H](CC(C)C)C(=O)N[C@@H](Cc2ccccc2)C(=O)N2CCC[C@H]2C(=O)N(C)[C@H](C)C(=O)N1C | 9.3 |
| CC(C)C[C@H]1NC(=O)[C@H](CC(C)C)N(C)C(=O)[C@@H](C)NC(=O)[C@@H]2CCCN2C(=O)[C@H](Cc2ccccc2)NC(=O)[C@H](CC(C)C)N(C)C(=O)[C@H]2CCCN2C1=O | 2.2 |
| CC(C)C[C@@H]1C(=O)N[C@H](CC(C)C)C(=O)N2CCC[C@H]2C(=O)N[C@H](CC(C)C)C(=O)N[C@@H](Cc2ccccc2)C(=O)N[C@@H](C)C(=O)N1C | 1.1 |
| CC(C)C[C@@H]1NC(=O)C[C@H](Cc2ccccc2)NC(=O)[C@H](Cc2ccccc2)NC(=O)[C@@H](CC(C)C)NC(=O)[C@H]2CCCN2C(=O)CN(Cc2ccccc2)C1=O | 4.8 |
| CCCN1CC(=O)N[C@H](CC(C)C)C(=O)N[C@@H](CC(C)C)C(=O)N2CCC[C@H]2C(=O)N(Cc2ccccc2)CC(=O)N[C@@H](Cc2ccccc2)C(=O)N2CCC[C@@H]2C1=O | 1.6 |
| CCCN1CC(=O)N[C@@H](CC(C)C)C(=O)N[C@@H](CC(C)C)C(=O)N2CCC[C@H]2C(=O)N[C@@H](CC(C)C)C(=O)N[C@@H](Cc2ccccc2)C(=O)N2CCC[C@@H]2C1=O | 1.5 |
| CC(C)C[C@@H]1C(=O)N[C@@H](Cc2ccccc2)CC(=O)N2CCC[C@H]2C(=O)N[C@H](CC(C)C)C(=O)N[C@@H](Cc2ccccc2)C(=O)N2CCC[C@@H]2C(=O)N(C)[C@H](C)C(=O)N1C | 2.8 |
| CCCN1CC(=O)N[C@H](CC(C)C)C(=O)N(C)[C@H](CC(C)C)C(=O)N2CCC[C@H]2C(=O)N[C@H](CC(C)C)C(=O)N[C@@H](Cc2ccccc2)C1=O | 11 |
| CC(C)C[C@@H]1C(=O)N(C)[C@@H](CC(C)C)C(=O)N2CCC[C@@H]2C(=O)N(C)[C@H](CC(C)C)C(=O)N[C@@H](Cc2ccccc2)C(=O)N2CCC[C@H]2C(=O)N[C@@H](Cc2ccccc2)CC(=O)N1C | 3.3 |

Excerpt, the final 2 entries:

structure (SMILES)	PAMPA (10^-6 cm/s)
CCCN1CC(=O)N[C@H](CC(C)C)C(=O)N(C)[C@H](CC(C)C)C(=O)N2CCC[C@H]2C(=O)N[C@H](CC(C)C)C(=O)N[C@@H](Cc2ccccc2)C1=O	11
CC(C)C[C@@H]1C(=O)N(C)[C@@H](CC(C)C)C(=O)N2CCC[C@@H]2C(=O)N(C)[C@H](CC(C)C)C(=O)N[C@@H](Cc2ccccc2)C(=O)N2CCC[C@H]2C(=O)N[C@@H](Cc2ccccc2)CC(=O)N1C	3.3

Collected by the curators of CycPeptMPDB (Li et al. 2023) from Townsend et al. 2020, doi:10.26434/chemrxiv.13335941.v1.